Results reported in PMC4949548.

Experiments:
[1] = target: YFP‐LhaA (Rhodobacter sphaeroides 2.4.1); experiment: FRET or BRET; fluorescence lifetime microscopy of pelleted membranes in 20 mM HEPES pH 8 sparged with nitrogen; lifetime of the CFP donor at 480 nm; CFP and SYFP2 on LhaA and on RC-H
[2] = target: CFP‐LhaA (Rhodobacter sphaeroides 2.4.1); experiment: as above

CFP donor lifetime τ1 with the acceptor [1] [ns]	CFP donor lifetime τ2 with the acceptor [1] [ns]	CFP donor lifetime τ3 with the acceptor [1] [ns]	amplitude averaged CFP donor lifetime τav with the acceptor [1] [ns]	CFP donor lifetime τ1 with the acceptor [2] [ns]	CFP donor lifetime τ2 with the acceptor [2] [ns]	FRET efficiency [2] [%]	amplitude averaged CFP donor lifetime τav with the acceptor [2] [ns]	Substance
1.36	0.51	0.32	0.62					RC‐CFP (from UniProt Q3J170 1-260) (natural protein)
				1.57	0.16	70	0.26	RC‐YFP (from UniProt Q3J170 1-260) (natural protein)
